Assays:
phospho-ERK (pERK) = assay: Signaling in iPS-derived cardiomyocytes; assay type: cell-based, human; conditions: 24 hours pretreatment; 5 nM heregulin, 10 min
Protocol: (§1) iPS-derived cardiomyocytes (iCell™ iPS-derived human cardiomyocytes—Cellular Dynamics International (CDI), Madison, Wis.—CDI #CMC-100-010-001, Lot 1258680) are cultured using iCell™ Plating Medium (CDI #CMM-100-110-005, Lot 1013740 and iCell™ Maintenance Medium (CDI #CMM-100-120-005, Lot 1000305) and are exposed to components of MM-302. Levels of phospho-AKT (pAKT) and phospho-ERK (pERK) in the cardiomyocytes are then measured using immunostaining and high content microscopy. Cells are pretreated for 24 hours with either trastuzumab, lapatinib, or the MM-302 antibody (F5-scFv) and an MM-302 molecule (liposome) not containing doxorubicin (F5-lipo) at an equivalent concentration to 5.0 ug/ml of MM-302. Cells are stained and imaged using high content microscopy as described above for (A) pAKT and (B) pERK following a10 minute stimulation with 10 nM and 5 nM of heregulin, respectively. […] Images are analyzed and individual cells are segmented on the basis of Hoechst 33342 nuclear staining. Single cell signal intensity for each stain is quantified and represented as the mean relative intensity of individual cells.
(§2) After stimulation with 10 nM (FIG. 6A) and 5 nM (FIG. 6B) of heregulin (HRG) for 10 min, the levels of phospho-AKT (pAKT, FIG. 6A) and phospho-ERK (pERK, FIG. 6B) were measured by high content microscopy as described above.

phospho-AKT (pAKT) = assay: Signaling in iPS-derived cardiomyocytes; assay type: cell-based, human; conditions: 24 hours pretreatment; 10 nM heregulin, 10 min
Protocol: as §1, §2

In the case of “trastuzumab: therapeutic anti-HER2 antibody”, the “heregulin (HRG)-induced phosphorylation of ERK” value (phospho-ERK (pERK)) is reported as “reduction in HRG-mediated phosphorylation” and the “heregulin (HRG)-induced phosphorylation of AKT” value (phospho-AKT (pAKT)) is reported as “reduction in HRG-mediated phosphorylation”.
